Tests used:
Nociceptin receptor [1] = molecular target: T1, Nociceptin receptor (Homo sapiens, UniProt P41146); assay: Displacement of [3H]N/OFQ from human NOP expressed in CHO cell membrane incubated for 60 mins by liquid scintillation counting method
[2] = molecular target: Delta-type opioid receptor (Homo sapiens, UniProt P41143); assay: Displacement of [3H]DPDPE from human DOP expressed in CHO cell membrane incubated for 60 mins by liquid scintillation counting method
Nociceptin receptor [3] = molecular target: T1, Nociceptin receptor; assay: Agonist activity at human NOP expressed in CHO cell membrane incubated for 60 mins by [35S]GTPgammaS binding assay
[4] = molecular target: Kappa-type opioid receptor (Homo sapiens, UniProt P41145); assay: Displacement of [3H]U69593 from human KOP expressed in CHO cell membrane incubated for 60 mins by liquid scintillation counting method
Mu-type opioid receptor [5] = molecular target: T2, Mu-type opioid receptor (Homo sapiens, UniProt P35372); assay: Displacement of [3H]DAMGO from human MOP expressed in CHO cell membrane incubated for 60 mins by liquid scintillation counting method
Mu-type opioid receptor [6] = molecular target: T2, Mu-type opioid receptor; assay: Agonist activity at human MOP expressed in CHO cell membrane incubated for 60 mins by [35S]GTPgammaS binding assay

| SMILES | Ki (Nociceptin receptor [1]) | Ki [2] | EC50 (Nociceptin receptor [3]) | Ki [4] | Ki (Mu-type opioid receptor [5]) | EC50 (Mu-type opioid receptor [6]) |
| --- | --- | --- | --- | --- | --- | --- |
| CC(C)[C@H]1CC[C@@H](N2CCC(n3cc(CCCNC(N)=S)c4ccccc43)CC2)CC1 | 31.8 nM | > 10000 nM | 175 nM |  |  |  |
| CC(C)[C@H]1CC[C@@H](N2CCC(n3cc(CN(C)C)c4ccccc43)CC2)CC1 | 43.8 nM | > 10000 nM | 532 nM | > 10000 nM |  |  |
| CC(C)[C@H]1CC[C@@H](N2CCC(n3cc(CNCCO)c4ccccc43)CC2)CC1 | 136 nM | > 10000 nM |  |  |  |  |
| CC(C)[C@H]1CC[C@@H](N2CCC(n3cc(CN4CCC(N)CC4)c4ccccc43)CC2)CC1 | 216 nM | > 10000 nM |  |  |  |  |
| CC(C)[C@H]1CC[C@@H](N2CCC(n3cc(C(N)=O)c4ccccc43)CC2)CC1 | 129 nM | 2710 nM |  | 446 nM | 453 nM |  |
| CC(C)[C@H]1CC[C@@H](N2CCC(n3cc(CCNC(N)=S)c4ccccc43)CC2)CC1 | 24.4 nM | > 10000 nM | > 10000 nM | 81 nM | 227 nM |  |
| CC(C)[C@H]1CC[C@@H](N2CCC(n3cc(CN4CC[C@@H](O)C4)c4ccccc43)CC2)CC1 | 9.46 nM | > 10000 nM | 575 nM |  |  |  |
| CC(C)[C@H]1CC[C@@H](N2CCC(n3cc(CNC(N)=S)c4ccccc43)CC2)CC1 | 10.5 nM | 4070 nM | 343 nM | 1330 nM | 71.3 nM | > 10000 nM |
| CC(C)[C@H]1CC[C@@H](N2CCC(n3cc(CN4CCCC4)c4ccccc43)CC2)CC1 | 1.47 nM | > 10000 nM | 97.4 nM | 461 nM | 453 nM |  |
| CC(C)[C@H]1CC[C@@H](N2CCC(n3cc(CCCN)c4ccccc43)CC2)CC1 | 20.9 nM | > 10000 nM | 249 nM | 1320 nM | 46.2 nM | 1760 nM |
| CC(C)[C@H]1CC[C@@H](N2CCC(n3cc(CNC(=O)CCCCCN)c4ccccc43)CC2)CC1 | 23.1 nM | > 10000 nM | 464 nM | > 10000 nM | 949 nM |  |
| CCNCC(=O)NCc1cn(C2CCN([C@H]3CC[C@@H](C(C)C)CC3)CC2)c2ccccc12 | 15.9 nM | > 10000 nM | 277 nM |  |  |  |
| CC(C)[C@H]1CC[C@@H](N2CCC(n3cc(CN4CCC(O)CC4)c4ccccc43)CC2)CC1 | 64 nM | 6030 nM | 446 nM |  |  |  |
| CC(C)[C@H]1CC[C@@H](N2CCC(N3CCc4ccccc43)CC2)CC1 | 10.3 nM | 3070 nM | 54.5 nM | 562 nM | 604 nM |  |
| CC(C)[C@H]1CC[C@@H](N2CCC(n3cc(CCN)c4ccccc43)CC2)CC1.Cl.Cl | 2.27 nM | > 10000 nM | 139 nM |  |  |  |
| CC(C)[C@H]1CC[C@@H](N2CCC(n3cc(CNC(=O)[C@@H](N)CCCNC(=N)N)c4ccccc43)CC2)CC1 | 11 nM | > 10000 nM | > 10000 nM |  |  |  |
| CC(C)[C@H]1CC[C@@H](N2CCC(n3cc(/C=N/O)c4ccccc43)CC2)CC1 | 2.17 nM | 1690 nM | 67 nM | > 10000 nM | 56.4 nM | 3200 nM |
| CC(C)[C@H]1CC[C@@H](N2CCC(n3cc(CN4CC(O)C4)c4ccccc43)CC2)CC1 | 23.6 nM | > 10000 nM | 1560 nM |  |  |  |

Source: ChEMBL document CHEMBL4354845, “Discovery and Structure-Activity Relationships of Nociceptin Receptor Partial Agonists That Afford Symptom Ablation in Parkinson's Disease Models” (J Med Chem, 2020)
